The target of experiment [1] is T1, recombinant human AChE (Homo sapiens, UniProt P22303). The experiment is described as follows: biochemical.
Experiment [2] concerns the target T1, recombinant human AChE.
The target of experiment [3] is AChE in neural stem cells (Homo sapiens, UniProt P22303). The experiment is described as follows: cell-based.
The target of another experiment is AChE in SH-SY5Y cells (Homo sapiens, UniProt P22303). The experiment can be described thus: cell-based.
Experiment [4] has as its target AChE in neural stem cell spheroids (Homo sapiens, UniProt P22303). The experiment is described as follows: cell-based. The conditions noted are these: for IC50: potency (IC50).
For experiment [5], the target named is T1, recombinant human AChE. The experiment can be described thus: biochemical. The source holds these as a separate data set.
Experiment [6] deals with T1, recombinant human AChE. The experiment can be described thus: biochemical. This is another data set of the same source.
Experiment [7] addresses AChE in SH-SY5Y spheroids (Homo sapiens, UniProt P22303). The experiment is described as follows: cell-based. The conditions noted are these: potency (IC50).
Experiment [8] deals with T1, recombinant human AChE. The experiment is described as follows: biochemical. The class given is biochemical. Conditions: for AC50: AC50 (uM).
[9] abbreviates: potency (IC50), Enzyme with microsomes.
Setting [10] is: potency (IC50), SH-SY5Y cells monolayer.
The mark [11] stands for this setting: Neural stem cell spheroid (24 h).
The mark [12] stands for this setting: Neural stem cell spheroid (48 h).

By UniProt entry, the sequences of proteins in these tests, tags left out. Residues count along the entry.
UniProt P22303, 32-614: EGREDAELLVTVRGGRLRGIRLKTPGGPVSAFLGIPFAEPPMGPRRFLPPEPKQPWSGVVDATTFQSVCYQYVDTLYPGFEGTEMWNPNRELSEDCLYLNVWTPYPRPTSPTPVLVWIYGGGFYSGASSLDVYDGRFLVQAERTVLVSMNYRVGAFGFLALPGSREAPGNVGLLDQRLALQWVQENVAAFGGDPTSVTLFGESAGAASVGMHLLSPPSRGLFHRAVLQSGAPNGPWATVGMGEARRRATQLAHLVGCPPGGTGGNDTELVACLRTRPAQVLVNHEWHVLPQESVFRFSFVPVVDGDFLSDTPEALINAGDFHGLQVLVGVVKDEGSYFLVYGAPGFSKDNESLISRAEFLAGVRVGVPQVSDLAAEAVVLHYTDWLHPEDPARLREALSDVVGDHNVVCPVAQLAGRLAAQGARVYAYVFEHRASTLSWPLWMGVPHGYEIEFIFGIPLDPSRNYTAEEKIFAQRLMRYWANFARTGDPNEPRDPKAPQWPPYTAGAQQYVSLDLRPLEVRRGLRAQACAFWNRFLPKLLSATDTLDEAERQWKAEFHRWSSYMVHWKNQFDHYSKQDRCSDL

Several values for one entry are separate records, joined by “and”; a condition that tells them apart may be missing. Unless stated, no cut-off for active and inactive is given here. Identical values can stand only once. Like-named read-outs stand apart in the source and are kept apart here.

Data on 5 compounds can be found in publication PMC8041433 (Environmental Health Perspectives, 2021).
Throughout, for IR or R: key: Reversible (R); Irreversible (IR); ND, not detected in enzyme-based AChE inhibition assay from current study.

In general, IC50 refers to the point on the concentration scale where inhibition reaches its midpoint. As a reminder, the AC50 is the midpoint of the concentration-response curve, whichever way the signal moves. In the case of `COc1ccc2cc3[n+](cc2c1OC)CCc1cc2c(cc1-3)OCO2` [Berberine], the 50% inhibitory concentration (IC50) at recombinant human AChE [1] (IC50 (uM)) is 24.5 µM; at recombinant human AChE [1] (setting [9]) it was 10.9 ± 1.25 µM; in experiment [3] (read-out: potency (IC50), Neural stem cells monolayer) it was 7.41 ± 0.48 µM; against AChE in SH-SY5Y cells (IC50 (uM)), 2.45 µM and 1.38 µM; against AChE in SH-SY5Y cells (setting [10]), 1.42 ± 0.09 µM; in experiment [4] (setting [11]), 5.29 ± 0.9 µM. Further, the 50% inhibitory concentration (IC50) was found to be 11 ± 2.05 µM in experiment [4] (setting [12]); 7.47 ± 1.27 µM at recombinant human AChE [5] (read-out: potency (IC50), Enzyme-based assay with heat-inactivated microsomes); 3.47 µM on recombinant human AChE [6] (IC50 (uM)); 2.38 ± 0.59 µM at recombinant human AChE [6] (potency (IC50), Enzyme); 1.23 ± 0.69 µM in experiment [7] (SH-SY5Y spheroids (24 h)); 2.89 ± 0.65 µM in [7] (SH-SY5Y spheroids (48 h)). The entries for the “CC-v2 (curve classes)” value on recombinant human AChE [2], on AChE in SH-SY5Y cells and at recombinant human AChE [6] were -2.1, -1.1 and -1.1, respectively. Also, the Efficacy was -74.661 on recombinant human AChE [2] and -87.809 on recombinant human AChE [6]. Further, the “IR or R” value at recombinant human AChE [8] is recorded as “R”. Besides, the AC50 on recombinant human AChE [8] is 2.17 µM and 3.43 µM (3×) and 3.06 µM and 1.72 µM and 4.32 µM.
In the case of `CO[C@]12C[C@@H](COC(=O)c3cncc(Br)c3)CN(C)[C@@H]1Cc1cn(C)c3cccc2c13` [Nicergoline, reference compound], the half-inhibitory concentration (IC50) on recombinant human AChE [1] (IC50 (uM)) is 27.5 µM; at recombinant human AChE [1] (setting [9]) it was 13.7 ± 1.57 µM; in experiment [3], 16.6 ± 1.08 µM; on AChE in SH-SY5Y cells (IC50 (uM)), 3.09 µM and 6.92 µM and 3.47 µM; on AChE in SH-SY5Y cells (setting [10]), 6.13 ± 0.7 µM; in experiment [4] (setting [11]), 16.1 ± 2.89 µM. For the same compound, the 50% inhibitory concentration (IC50) in experiment [4] (setting [12]) turned out to be 16.4 µM; on recombinant human AChE [5], 13.9 ± 3.18 µM; on recombinant human AChE [6] (IC50 (uM)) it was 6.17 µM; at recombinant human AChE [6] (potency (IC50), Enzyme), 8.07 ± 1.45 µM; in [7] (SH-SY5Y spheroids (24 h)), 3.88 ± 3.28 µM; in [7] (SH-SY5Y spheroids (48 h)), 2.98 ± 0.51 µM. In addition, the “CC-v2 (curve classes)” value at recombinant human AChE [2] is recorded as -2.1; on AChE in SH-SY5Y cells, -1.1; on recombinant human AChE [6] it was -1.1. For the same compound, the Efficacy is given as -84.711 on recombinant human AChE [2] and -101.908 on recombinant human AChE [6]. The “IR or R” value on recombinant human AChE [8] is “R”.
As for `CNC(=O)O/N=C/C(C)(C)S(C)(=O)=O` [Aldoxycarb], the concentration for half-maximal inhibition (IC50) on recombinant human AChE [1] (IC50 (uM)) is 63.2 µM and 80 µM; on recombinant human AChE [1] (setting [9]), 23.1 ± 1.56 µM; in [3], 9.57 ± 0.62 µM; against AChE in SH-SY5Y cells (IC50 (uM)), 11.2 µM and 17.9 µM and 22.4 µM and 20 µM and 20.1 µM; against AChE in SH-SY5Y cells (setting [10]), 15.2 ± 2.09 µM; in [4] (setting [11]) it was 7.91 ± 4.02 µM. For the same compound, the IC50 is 10.1 µM in experiment [4] (setting [12]); 26 ± 1.76 µM at recombinant human AChE [5]; 22.4 µM and 35.7 µM at recombinant human AChE [6] (IC50 (uM)); 18.4 ± 1.24 µM on recombinant human AChE [6] (potency (IC50), Enzyme); 13.9 ± 6.95 µM in experiment [7] (SH-SY5Y spheroids (24 h)); 19.1 ± 1.24 µM in experiment [7] (SH-SY5Y spheroids (48 h)). On recombinant human AChE [8], the AC50 is 35.2 µM and 49.8 µM (2×) and 44.4 µM (2×) and 15.7 µM and 12.5 µM.
As to `CCN(CC)CCCC(C)Nc1c2ccc(Cl)cc2nc2ccc(OC)cc12` (stereo not shown) [Quinacrine, reference compound], the IC50 turned out to be 12.5 ± 4.9 µM on recombinant human AChE [1] (setting [9]); 10.1 ± 0.68 µM in [3]; 3.44 ± 0.39 µM against AChE in SH-SY5Y cells (setting [10]); 11.8 ± 2.02 µM on recombinant human AChE [5]; 5.46 ± 1.79 µM on recombinant human AChE [6] (potency (IC50), Enzyme); 6.03 ± 2.86 µM in experiment [7] (SH-SY5Y spheroids (24 h)). This compound gave an IC50 in experiment [7] (SH-SY5Y spheroids (48 h)) of 4.19 ± 0.58 µM. In experiment [4], the “potency (IC50), Neural stem cell spheroid (24 h)” value is “Inactive”. Besides, the “potency (IC50), Neural stem cell spheroid (48 h)” value in [4] was “Inactive”. Further, the “IR or R” value at recombinant human AChE [8] is reported as “R”.
As to `CN(C)c1ccc2nc3ccc(=[N+](C)C)cc-3sc2c1` [Methylene blue, reference compound], the concentration for half-maximal inhibition (IC50) was 6.33 µM at recombinant human AChE [1] (IC50 (uM)); 17.5 ± 4 µM on recombinant human AChE [1] (setting [9]); 1.12 µM and 1.1 µM and 0.796 µM and 0.977 µM and 0.71 µM against AChE in SH-SY5Y cells (IC50 (uM)); 2.44 ± 0.28 µM against AChE in SH-SY5Y cells (setting [10]); 13.7 ± 1.57 µM in [4] (setting [11]); 16.6 µM in experiment [4] (setting [12]). The IC50 on recombinant human AChE [5] is 15.1 ± 3.76 µM; at recombinant human AChE [6] (IC50 (uM)), 2 µM and 2.45 µM; on recombinant human AChE [6] (potency (IC50), Enzyme) it was 3.43 µM; in experiment [7] (SH-SY5Y spheroids (24 h)), 9.19 ± 7.13 µM; in experiment [7] (SH-SY5Y spheroids (48 h)), 7.13 ± 0.48 µM. Besides, the “CC-v2 (curve classes)” value at recombinant human AChE [2], at AChE in SH-SY5Y cells and on recombinant human AChE [6] was -1.1 in each case. Besides, on recombinant human AChE [8], the “IR or R” value is listed as “R”. In addition, at recombinant human AChE [8], the AC50 is 21.7 µM (3×) and 19.3 µM.
